Earlier results in patent US9365511B2, “Biphenyl-ethyl-pyrrolidine derivatives as histamine H3 receptor modulators for the treatment of cognitive disorders” (Arena Pharmaceuticals, Inc., priority 2013, dated 2016).

By UniProt entry, the sequences of proteins in these tests, tags left out. Where a name states a change or a piece, a line headed by the entry shows the natural chain unless it says otherwise.
UniProt Q9QYN8: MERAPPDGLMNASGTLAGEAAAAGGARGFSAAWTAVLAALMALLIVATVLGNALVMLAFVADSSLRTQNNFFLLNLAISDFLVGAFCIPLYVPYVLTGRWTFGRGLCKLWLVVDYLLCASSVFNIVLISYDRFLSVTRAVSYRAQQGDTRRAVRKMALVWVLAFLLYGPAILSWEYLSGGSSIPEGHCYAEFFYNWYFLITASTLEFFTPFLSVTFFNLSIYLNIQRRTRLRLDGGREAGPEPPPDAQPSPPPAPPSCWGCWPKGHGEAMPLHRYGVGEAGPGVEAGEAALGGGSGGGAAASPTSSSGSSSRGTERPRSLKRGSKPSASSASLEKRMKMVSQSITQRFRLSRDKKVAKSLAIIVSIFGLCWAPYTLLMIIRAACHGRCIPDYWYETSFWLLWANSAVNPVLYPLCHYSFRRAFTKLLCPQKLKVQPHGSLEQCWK

Target: rat H3 receptor (Rattus norvegicus (Rat), UniProt Q9QYN8)
Conditions: radioligand constant used for Cheng-Prusoff conversion; cited from earlier work

[^3H]N-methylhistamine
Kd: 0.4 nM
